## Antibody variant affinities, Ab-14 light chain, assay B

Binding partner: SARS-CoV-2 spike HR2 peptide, sequence PDVDLGDISGINAS.

Each scFv is VH, the linker GGGGSGGGGSGGGGS, VL, as in the parent Ab-14, and differs from it in the CDRs of the light chain only.
VH: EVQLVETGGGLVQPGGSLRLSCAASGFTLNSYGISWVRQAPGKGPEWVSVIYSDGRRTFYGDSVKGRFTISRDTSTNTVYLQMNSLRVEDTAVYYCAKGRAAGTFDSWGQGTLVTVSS
VL: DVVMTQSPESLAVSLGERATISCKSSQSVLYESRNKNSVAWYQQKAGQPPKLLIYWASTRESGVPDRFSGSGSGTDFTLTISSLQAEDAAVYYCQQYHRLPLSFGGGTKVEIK

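Phage display of a naive human antibody library on the peptide gave the parent. The variants were designed computationally from a first round of random CDR variants and then made and measured. Their group label is 14L_En_HC (En: ensemble of fine-tuned language models; HC: hill climbing; a sequence that several methods proposed may carry one label only). The assay is AlphaSeq: two haploid yeast populations carry antibody and antigen on their surface. Pairs that bind mate more often; barcode pairs of the diploids are counted by sequencing. Each replicate has its own calibration line, from reference interactions of the BCL2 family. The assay was run in six technical replicates.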

The parent's light chain CDRs are KSSQSVLYESRNKNSVA, WASTRES, QQYHRLPLS; each variant's own CDRs replace them letter for letter.
Numbers give log10(Kd / nM), so 0 is 1 nM and 3 is 1 µM. Smaller is tighter.
Averages over replicates are reported, and they cover detected replicates only.
An entry "ND" has no value in the source: the pair was not observed among the diploids in that replicate. This suggests poor binding but is not conclusive.
A sequence measured in both rounds can read differently, since the two assays cover different ranges.
The authors' rule: three or more of the six replicates give a measured affinity, fewer mean a poor binder.
Of ten entries with the parent sequence, four were seen in most replicates (averages 0.34 to 2.37), three in one and three in none, so single entries are noisy.
Three control strains display no target. For all light chain designs, 4% of the pairings with them gave a signal, with a median of 2.64 and one signal in twenty below 1.59, so weak values seen in few replicates may be background. Also given: how often the same scFv was detected with the empty control strains, with their mean in brackets.

| # | CDR-L1 | CDR-L2 | CDR-L3 | replicates, log10 nM | log10 Kd (nM), mean | control signals |
|---|---|---|---|---|---|---|
| 1 | MISDLTMMGSRNKNSVA | DLSTRGS | QQYARLPLS | 0.19 -0.08 -0.16 -0.21 -0.05 0.10 | -0.04 | 0 of 18 |
| 2 | KLSMSMLMEQRNKNSVA | ENSTRES | QHYHRLPLS | ND ND ND ND ND ND | ND | 0 of 18 |
| 3 | TLTQVTMVESYNKNSVA | QANTREE | QDYHRLPLS | 1.82 2.50 ND 2.41 2.15 2.25 | 2.23 | 1 of 18 (1.49) |
| 4 | IFSQSVLMGQLTKNSVA | QASTRFS | QQYHRLPLI | 0.36 -0.16 0.38 -0.24 0.52 -0.01 | 0.14 | 1 of 18 (2.23) |
| 5 | TISGLIMMPSRAKNSVA | NTSTRYQ | QQYHRLPLI | 1.51 0.65 0.96 1.41 0.77 1.33 | 1.10 | 2 of 18 (2.93) |
| 6 | TISQSAQNESHNKNSVA | DLSVRGS | QQYHRLPLS | 0.40 0.45 0.65 0.45 0.36 0.55 | 0.48 | 3 of 18 (2.41) |
| 7 | SLAEAVHMESRNKNSVA | DNSTRES | QHYHRLPLS | 2.00 2.98 ND 2.01 1.76 3.02 | 2.35 | 2 of 18 (2.71) |
| 8 | ILSDTVMQGSYYRNSVA | QESTRAD | QQYHHLPLS | ND ND ND ND ND ND | ND | 0 of 18 |
| 9 | MIAQGLRGMGRNKNSVA | NAQTRES | QHYHRLPLS | ND ND ND ND 3.19 3.03 | 3.11 | 0 of 18 |
| 10 | TISQSWFIEQRNKNNVA | EMSTREN | QDYDRLPLS | 0.21 0.23 -0.22 -0.02 -0.02 0.33 | 0.08 | 2 of 18 (2.75) |
| 11 | IVSQSVLGESRNLNSVA | QTSERNY | QQYDRLPLS | 0.42 0.53 0.22 0.16 0.33 0.37 | 0.34 | 0 of 18 |
| 12 | KISQNMGETQRNKHSVA | EVSLVPS | QQYWRLPLS | 1.27 1.90 ND 2.21 1.45 2.64 | 1.89 | 1 of 18 (1.95) |
| 13 | NSSGPMMFESRNKNSVA | HASTRED | QQYERLPLS | 0.14 -0.11 -0.12 -0.16 -0.08 0.04 | -0.05 | 1 of 18 (2.49) |
| 14 | MAYGGDMLESVTRNSVA | NAETRAN | QDYHRLPLS | 0.24 0.34 -0.03 0.01 0.40 0.17 | 0.19 | 2 of 18 (2.63) |
| 15 | TLTQVTMVESYMKNSVA | QASTREE | QDYHRLPLS | 0.97 1.52 0.75 0.60 2.16 1.00 | 1.17 | 0 of 18 |
| 16 | HISTLMRYESSLKNAIA | NAQTRES | QQYHRLPLS | 0.87 0.60 0.46 0.36 0.88 0.82 | 0.66 | 1 of 18 (2.77) |
| 17 | TISQSAVMESHNKNSVA | DLNVRGS | QQYDRLPLS | 0.21 0.11 0.39 -0.31 0.20 0.47 | 0.18 | 0 of 18 |
| 18 | ALSQSMDMTSRNKNSVA | DLSTRGN | QQYHRLPLS | 0.18 0.29 0.04 0.09 0.09 0.40 | 0.18 | 2 of 18 (2.80) |
| 19 | TISESWMYESRNKNNVA | EESTKCD | QSYFRLPLS | ND 2.62 1.51 1.87 0.77 1.38 | 1.63 | 0 of 18 |
| 20 | MLLQSTMYGERNRNSVA | HANTRED | QQYHRLPLI | 0.79 0.86 0.73 0.71 1.27 1.16 | 0.92 | 0 of 18 |
| 21 | MFSQGVMVGWLTRNSVA | NSSTRES | QQYHRLPLS | 1.15 1.42 0.77 0.79 0.81 0.66 | 0.93 | 1 of 18 (2.10) |
| 22 | KVNGLMNISQMNSKSVA | QSSTREN | QQYHRLPLS | 0.22 0.35 0.07 0.13 0.29 0.16 | 0.20 | 1 of 18 (2.66) |
| 23 | KLSATYRFESQNKSNIA | EMTTREE | QCYHRLPLS | 2.06 2.07 ND 3.21 2.64 2.28 | 2.45 | 0 of 18 |
| 24 | KIGGVTNGISRNKNSVA | EQSTRED | QQYDRLPLS | 1.21 0.90 0.13 -0.11 0.43 0.91 | 0.58 | 1 of 18 (1.79) |
| 25 | KFSQMVNYESTHVNAVA | QMSTREE | QQYHRLPLS | 0.09 0.12 0.10 -0.17 -0.04 0.02 | 0.02 | 0 of 18 |
| 26 | QLYQSMNFLGRVMNSIA | DASTIWD | QQYHRLPLS | ND 1.04 0.82 ND 0.81 ND | 0.89 | 0 of 18 |
| 27 | LISGVWDLGSRNYNSVA | QTSTRES | QQYDRLPLE | 1.16 1.33 0.67 0.84 0.74 0.99 | 0.96 | 0 of 18 |
| 28 | TLSGVMDMTTRNVNSVA | DLTTRGN | QQYHRLPLS | 0.31 0.42 0.69 0.15 0.45 0.27 | 0.38 | 0 of 18 |
| 29 | ILYDEVGTLSRNKNSVA | DNSTRES | QQYDRLPLS | 1.48 1.49 1.44 1.59 2.30 2.14 | 1.74 | 2 of 18 (2.73) |
| 30 | TITQMFLGESRNRNSVA | QASTRES | QSYDRLPLS | 3.38 ND ND 3.30 ND ND | 3.34 | 1 of 18 (3.38) |
| 31 | MIQGSVMSESRLKNSVA | QTTTRES | QQYDRLPLS | 0.38 1.18 1.74 1.40 0.32 0.99 | 1.00 | 0 of 18 |
| 32 | TLGDVTRMESNKKSSIA | DMSNRAD | QQYHRLPLS | 0.56 0.31 0.11 0.13 0.42 0.39 | 0.32 | 2 of 18 (2.45) |
| 33 | KLLQEVTGHARNRNSVA | HNSTRED | QQYDRLPLS | 1.67 ND ND ND ND ND | 1.67 | 2 of 18 (2.62) |
| 34 | ILYESVGTLSRNKNSVA | DNSNRES | QQYDRLPLS | ND ND ND ND ND ND | ND | 0 of 18 |
| 35 | KLRQLMHIESFNKNNVA | EMTTREK | QSYDRLPLS | 1.89 1.24 0.81 1.83 1.40 0.80 | 1.33 | 0 of 18 |

Again, the first 3 entries without any signal:

{"CDR-L1": "KLSMSMLMEQRNKNSVA", "CDR-L2": "ENSTRES", "CDR-L3": "QHYHRLPLS", "replicates, log10 nM": "ND ND ND ND ND ND", "log10 Kd (nM), mean": "ND", "control signals": "0 of 18"}
{"CDR-L1": "ILSDTVMQGSYYRNSVA", "CDR-L2": "QESTRAD", "CDR-L3": "QQYHHLPLS", "replicates, log10 nM": "ND ND ND ND ND ND", "log10 Kd (nM), mean": "ND", "control signals": "0 of 18"}
{"CDR-L1": "ILYESVGTLSRNKNSVA", "CDR-L2": "DNSNRES", "CDR-L3": "QQYDRLPLS", "replicates, log10 nM": "ND ND ND ND ND ND", "log10 Kd (nM), mean": "ND", "control signals": "0 of 18"}

Reference: Li et al. 2023, doi:10.1038/s41467-023-39022-2. File: FLAb, binding data.